Molecular target: Aldo-keto reductase family 1 member B1 (Bos taurus, UniProt P16116)
Test: inhibition of aldose reductase activity was measured on partially purified bovine lens preparations incubated in presence of 50 mM glucose.

IC50: 34 nM
Compound: COc1ccc2c(C(=S)N(C)CC(=O)O)cccc2c1C(F)(F)F [TOLRESTAT]
